A selection: hits, their analogues and other compounds. The true share with any hit is near 1.5%.
GSIS activator = GLuc luminescence reporter in INS-1E cells, primary screen for activators of glucose-dependent secretion of insulin; INS-1E GLuc reporter insulin secretion, 2-3 h; activation, % at 16.6 µM; 0.61% of 370,000 active;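 active = lowest replicate activation of at least 40%, so every replicate reaches that level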
RAD54 inh = inhibitors of human RAD54 branch migration. inhibition, % at 10.4 µM. Q92698. AID 602329. RAD54 Holliday junction branch migration, FAM/BHQ fluorescence. 0.14% of 360,000 active;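 active = mean normalized replicate activity at least 40 and at least half of replicates scoring 40 or more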;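 also: inhibitors cause a drop in the FAM fluorescence signal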
RAD52 inh = inhibitors of human RAD52 DNA annealing. recombinant RAD52 DNA annealing, FRET fluorescence. inhibition, % at 18.7 µM. 0.46% of 360,000 active. AID 651710;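 active = every replicate showing at least 50% inhibition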
PglD inh = inhibitors of Campylobacter jejuni PglD acetyltransferase | purified PglD enzyme, DTNB colorimetric CoA detection | inhibition, % at 12.5 µM | 0.098% of 360,000 active; in the data active = inhibition above about 16%, passing the limit was not always enough
UUG fidelity = alters start codon recognition fidelity in yeast. S. cerevisiae UUG-firefly luciferase reporter, luminescence/redox ratio. 350,000 tested, 0.13% active. activity score, % at 18.7 µM. AID 602363;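 active means replicate mean at a twofold rise or more, about +100% in these data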;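 further: firefly luciferase made from a UUG start codon reports start codon fidelity; reporter light over untreated wells divided by growth signal over untreated wells; some hits fall short of that in this replicate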
Casp6 inh = blocks human caspase-6 cleavage activity | P55212 | purified caspase-6, Z-VEID-R110 cleavage fluorescence | inhibition, % at 12.5 µM | 0.53% of 350,000 active;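 active = mean inhibition across replicates at least about 35%, with every replicate also reaching that limit, limit read from the data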
Numbers stand for hits.

Results for C[C@H](CO)N1C[C@H](C)[C@H](CN(C)Cc2ccc3c(c2)OCO3)Oc2ccc(NC(=O)Nc3cccc4ccccc34)cc2C1=O ?
GSIS activator: inactive; RAD54 inh: inactive; RAD52 inh: inactive; PglD inh: inactive; UUG fidelity: inactive; Casp6 inh: inactive

How did CC1(C)CC[C@]2(C(=O)O)CC[C@]3(C)C(=CC[C@@H]4[C@@]5(C)CC[C@H](O[C@@H]6O[C@H](C(=O)O)[C@@H](O)[C@H](O[C@@H]7OC[C@H](O)[C@H](O)[C@H]7O)[C@H]6O)C(C)(C)[C@@H]5CC[C@]43C)[C@@H]2C1 do in these assays?
GSIS activator: 200; RAD54 inh: inactive; RAD52 inh: inactive; PglD inh: inactive; UUG fidelity: inactive; Casp6 inh: inactive

Results for CCc1ccc2c(c1)cc(CN(Cc1ccco1)C(C)=O)c1nnnn12 ?
GSIS activator: 52; RAD52 inh: inactive; Casp6 inh: inactive

What do the screens show for `Cc1ccc2c(c1)cc(CN(Cc1ccco1)C(=O)N1CCOCC1)c1nnnn12`?
GSIS activator: inactive; RAD54 inh: inactive; RAD52 inh: inactive; PglD inh: inactive; UUG fidelity: inactive; Casp6 inh: inactive

What do the screens show for `COc1ccc(N/C=C(\[N+](=O)[O-])S(=O)(=O)c2ccccc2)cc1`?
GSIS activator: inactive; RAD54 inh: inactive; RAD52 inh: inactive; PglD inh: inactive; UUG fidelity: inactive; Casp6 inh: inactive

What do the screens show for `O=[N+]([O-])/C(=C\Nc1ccccc1)S(=O)(=O)c1ccccc1`?
GSIS activator: 52; RAD54 inh: inactive; PglD inh: inactive; UUG fidelity: inactive

What do the screens show for `COc1ccc(Nc2c3c(nc4ccccc24)CCC3)cc1`?
GSIS activator: 74; RAD54 inh: inactive; RAD52 inh: inactive; PglD inh: inactive; UUG fidelity: inactive; Casp6 inh: inactive

Results for COCc1[nH]nc2c1C(c1ccc(F)cc1)NC2=O (configuration not stated) ?
GSIS activator: inactive; RAD52 inh: inactive; Casp6 inh: inactive

What do the screens show for `COCc1[nH]nc2c1C(c1ccc(C)cc1)NC2=O` (configuration not stated)?
GSIS activator: 50; RAD52 inh: inactive; Casp6 inh: inactive

Results for C[C@@H]1CN([C@H](C)CO)C(=O)Cc2cc(NC(=O)CCCCCC(=O)Nc3ccccc3N)ccc2O[C@@H]1CN(C)CC1CCCCC1 ?
GSIS activator: inactive; RAD54 inh: inactive; RAD52 inh: inactive; PglD inh: inactive; UUG fidelity: inactive; Casp6 inh: inactive

How did COc1ccc(NC(=O)Nc2ccc3c(c2)CC(=O)N([C@@H](C)CO)C[C@@H](C)[C@H](CN(C)Cc2ccc(-c4ccccc4)cc2)O3)cc1 do in these assays?
GSIS activator: inactive; RAD54 inh: inactive; RAD52 inh: 58; PglD inh: inactive; UUG fidelity: inactive; Casp6 inh: inactive

Results for COc1ccc(NC(=O)Nc2ccc3c(c2)CC(=O)N([C@H](C)CO)C[C@H](C)[C@@H](CN(C)Cc2ccc(Oc4ccccc4)cc2)O3)cc1 ?
GSIS activator: inactive; RAD54 inh: inactive; RAD52 inh: 67; PglD inh: inactive; UUG fidelity: inactive; Casp6 inh: inactive

How did COc1ccc(NC(=O)Nc2ccc3c(c2)CC(=O)N([C@H](C)CO)C[C@H](C)[C@@H](CN(C)Cc2ccc(-c4ccccc4)cc2)O3)cc1 do in these assays?
GSIS activator: inactive; RAD54 inh: inactive; RAD52 inh: inactive; PglD inh: inactive; UUG fidelity: inactive; Casp6 inh: inactive

How did COc1ccc(NC(=O)Nc2ccc3c(c2)CC(=O)N([C@@H](C)CO)C[C@H](C)[C@H](CN(C)Cc2ccc(Oc4ccccc4)cc2)O3)cc1 do in these assays?
GSIS activator: inactive; RAD54 inh: inactive; RAD52 inh: inactive; PglD inh: inactive; UUG fidelity: inactive; Casp6 inh: inactive

What do the screens show for `COc1cc(/C=C(/C#N)C(=O)Nc2ccccc2)ccc1OCc1ccc(C(=O)O)cc1`?
GSIS activator: inactive; RAD52 inh: inactive; Casp6 inh: 37

What do the screens show for `COc1cccc(NC(=O)NC2CC(=O)N(c3ccc4c(c3)OCCO4)C2)c1` (configuration not stated)?
GSIS activator: inactive; RAD54 inh: inactive; RAD52 inh: inactive; PglD inh: inactive; UUG fidelity: inactive; Casp6 inh: inactive

Results for COc1cc(N)c(Cl)cc1C(=O)OCC(=O)N1CCCCCC1 ?
GSIS activator: inactive; RAD52 inh: inactive; Casp6 inh: inactive

How did O=C1CC(SC(=S)C2CCCC2=O)C(=O)N1 (configuration not stated) do in these assays?
GSIS activator: inactive; RAD52 inh: inactive; Casp6 inh: 49

Results for CC1=NN(c2ccccc2)C(=O)C1C(=S)SC1CC(=O)NC1=O (configuration not stated) ?
RAD54 inh: inactive; RAD52 inh: inactive; PglD inh: inactive; UUG fidelity: inactive

How did Cc1ccc(-c2n[nH]c(=S)n2/N=C/c2c(C)nn(-c3ccccc3)c2C)cc1 do in these assays?
GSIS activator: 203

Results for Cc1ccccc1-c1n[nH]c(=S)n1/N=C/c1c(C)nn(-c2ccccc2)c1C ?
GSIS activator: 91; RAD54 inh: inactive; PglD inh: inactive; UUG fidelity: inactive

Results for Cc1nn(-c2ccccc2)c(C)c1/C=N/n1c(-c2ccc(C(C)(C)C)cc2)n[nH]c1=S ?
RAD54 inh: inactive; PglD inh: inactive; UUG fidelity: inactive

How did COc1cccc(CN2CCN(Cc3ccco3)CC2)c1 do in these assays?
GSIS activator: inactive; RAD54 inh: inactive; RAD52 inh: inactive; PglD inh: inactive; UUG fidelity: inactive

How did C[C@@H]1CCCCO[C@@H](CN(C)C(=O)CCC(F)(F)F)[C@H](C)CN([C@@H](C)CO)C(=O)c2cc(N(C)C)ccc2O1 do in these assays?
GSIS activator: inactive; RAD54 inh: inactive; RAD52 inh: inactive; PglD inh: inactive; UUG fidelity: inactive; Casp6 inh: inactive

How did CN1C(=O)c2cc(NC(=O)Cc3ccccc3)ccc2OC[C@@H]2O[C@@H](CC(=O)NCC3CC3)CC[C@@H]21 do in these assays?
GSIS activator: inactive; RAD54 inh: inactive; RAD52 inh: inactive; PglD inh: inactive; UUG fidelity: inactive; Casp6 inh: inactive

How did Cc1ccc(C(=O)c2c3ccccc3[n+]([O-])n2CCO)cc1 do in these assays?
GSIS activator: 48; RAD54 inh: inactive; RAD52 inh: inactive; PglD inh: inactive; UUG fidelity: inactive

What do the screens show for `Cc1ccc(S(=O)(=O)N(C)C[C@@H]2Oc3c(NC(=O)NC4CCCCC4)cccc3C(=O)N([C@@H](C)CO)C[C@H]2C)cc1`?
GSIS activator: inactive; RAD54 inh: inactive; RAD52 inh: inactive; PglD inh: inactive; UUG fidelity: inactive; Casp6 inh: inactive

How did Cc1cc(NS(=O)(=O)c2ccc(NC(=O)C(C)Oc3ccccc3Cl)cc2)no1 (configuration not stated) do in these assays?
GSIS activator: 59; RAD54 inh: inactive; RAD52 inh: inactive; PglD inh: inactive; UUG fidelity: inactive; Casp6 inh: inactive

Compound activity from PubChem BioAssay.
